Laboratory results from EP0823908B1, “PYRIDO[2,3-d]PYRIMIDINES FOR INHIBITING PROTEIN TYROSINE KINASE MEDIATED [sequence] PROLIFERATION” (Warner-Lambert Company LLC, priority 1995, dated 1996).

Chains of the proteins cited; added tags and fusions are not shown. Residues count along the entry.
UniProt P05622, 599-961 limits assumed: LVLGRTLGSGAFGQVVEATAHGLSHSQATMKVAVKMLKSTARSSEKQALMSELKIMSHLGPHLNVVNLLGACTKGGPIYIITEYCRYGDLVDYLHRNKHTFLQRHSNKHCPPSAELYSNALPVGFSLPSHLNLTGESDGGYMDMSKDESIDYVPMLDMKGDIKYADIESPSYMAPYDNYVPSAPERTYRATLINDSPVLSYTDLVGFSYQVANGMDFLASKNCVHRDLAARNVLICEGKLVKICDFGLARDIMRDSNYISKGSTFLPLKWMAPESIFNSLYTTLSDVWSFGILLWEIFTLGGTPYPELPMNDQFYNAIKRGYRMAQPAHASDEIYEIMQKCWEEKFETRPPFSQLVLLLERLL
UniProt P11362, 478-767 limits assumed: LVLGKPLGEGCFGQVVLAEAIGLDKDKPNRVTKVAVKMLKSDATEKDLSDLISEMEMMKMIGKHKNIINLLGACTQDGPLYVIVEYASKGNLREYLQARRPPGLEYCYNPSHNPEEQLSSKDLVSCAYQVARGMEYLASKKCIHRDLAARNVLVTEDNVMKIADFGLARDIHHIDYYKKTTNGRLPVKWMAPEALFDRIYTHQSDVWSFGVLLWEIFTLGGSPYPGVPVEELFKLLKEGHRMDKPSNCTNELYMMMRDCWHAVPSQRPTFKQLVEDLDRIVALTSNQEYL

Columns and labels:
[1] = target: T1, mouse PDGF-β receptor tyrosine kinase (Mus musculus, UniProt P05622); test: PDGF receptor tyrosine kinase assay (32P incorporation into glutamate-tyrosine co-polymer); type: biochemical
T1 construct: amplify a fragment of DNA that codes for the intracellular tyrosine kinase domain; made in house; host or cells: SF9 insect cells (baculovirus)

[2] = target: T2, human FGF-1 (flg) receptor tyrosine kinase (Homo sapiens, UniProt P11362); test: FGF receptor tyrosine kinase assay (32P incorporation into glutamate-tyrosine co-polymer); type: biochemical
T2 construct: amplify a fragment of DNA that codes for the intracellular tyrosine kinase domain; made in house; host or cells: SF9 insect cells (baculovirus)

CN1CCN(CCCCNc2ncc3cc(-c4c(Cl)cccc4Cl)c(=O)n(C)c3n2)CC1 [Example 59, 6-(2,6-Dichlorophenyl)-8-methyl-2-[4-(4-methylpiperazin-1-yl)-butylamino]-8H-pyrido[2,3-d]-pyrimidin-7-one]
IC50 [1]: 853 nM

COc1cccc(Nc2ncc3cc(-c4c(Cl)cccc4Cl)c(=O)n(C)c3n2)c1 [Example 72, 6-(2,6-Dichlorophenyl)-2-(3-methoxyphenylamino)-8-methyl-8H-pyrido[2,3-d]pyrimidin-7-one]
IC50 [2]: 365 nM
IC50 [1]: 259 nM

Cn1c(=O)c(-c2c(Cl)cccc2Cl)cc2cnc(Nc3cccnc3)nc21 [Example 79, 6-(2,6-Dichlorophenyl)-8-methyl-2-(pyridin-3-ylamino)-8H-pyrido[2,3-d]pyrimidin-7-one]
IC50 [1]: 102 nM

CCn1c(=O)c(-c2c(Cl)cccc2Cl)cc2cnc(Nc3ccncc3)nc21 [Example 93, (2,6-Dichlorophenyl)-8-ethyl-2-(pyridin-4-ylamino)-8H-pyrido[2,3-d]pyrimidin-7-one]
IC50 [1]: 76 nM
